# Laboratory results reported in patent publication US20060270629A1, “Methanocarba cycloalkyl nucleoside analogues” (Govt of the U.S.A., represented by the Secretary, Dept of …, priority 2000, published 2006).
# Protein sequences, listed by entry. Tags and fused reporters are not part of them.
# UniProt P0DMS8, whole entry: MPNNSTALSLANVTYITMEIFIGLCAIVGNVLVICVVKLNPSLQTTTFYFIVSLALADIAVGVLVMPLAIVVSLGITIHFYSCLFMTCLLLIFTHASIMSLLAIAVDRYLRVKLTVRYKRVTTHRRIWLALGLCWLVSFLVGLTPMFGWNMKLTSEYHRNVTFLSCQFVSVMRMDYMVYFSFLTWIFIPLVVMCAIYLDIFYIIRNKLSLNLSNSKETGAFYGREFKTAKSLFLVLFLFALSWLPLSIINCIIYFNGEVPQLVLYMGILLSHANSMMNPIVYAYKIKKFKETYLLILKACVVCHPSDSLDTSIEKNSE
# Molecular target: cloned hA3AR (Homo sapiens, UniProt P0DMS8)
# Assay: Stimulation of [35S]GTPγS binding, CHO cell membranes expressing cloned hA3AR
structure (smiles),measurement,value
"CCNC(=O)[C@H]1O[C@@H](n2cnc3c(N)ncnc32)[C@H](O)[C@@H]1O [NECA, 5′-N-ethyluronamidoadenosine, reference compound]",agonist efficacy at human A3 receptors,full A3 agonists
same,cloned hA3AR % Maximal Stimulation,100%
